Like-named read-outs stand apart in the source and are kept apart here.
Assay: in vivo
Conditions: mouse, single dose, fasted mice, mortality up to 72 hours

Question: Which LD50 at 72 h (ip, into the abdominal cavity, read-out: LD50 Abdominal administration) does the source give for `COc1ccc2c(c1)c(CC(=O)O)c(C)n2C(=O)C=Cc1ccccc1` [Cinmetacin, N-cinnamoyl-2-methyl-5-methoxy-3-indoleacetic acid] here?
Answer: 495 mg/kg

Question: And the LD50 at 72 h (oral, read-out: LD50 Oral administration)?
Answer: 820 mg/kg

Reference: patent US5747521A, “N-cinnamoyl-2-methyl-5-methoxy-3-indoleacetic acid ester, and pharmaceutical preparation containing the same” (priority 1992, dated 1998)
